What was measured:
Homo sapiens [1] = species: Homo sapiens; test: Selectivity ratio of IC50 for recombinant GST-tagged human ERRbeta LBD assessed as inhibition of fluorescein-labeled coactivator peptide recruitment to IC50 for His6-tagged ERRalpha LBD (unknown origin) assessed as inhibition of GST-tagged SRC-2 co-activator peptide recruitment
Homo sapiens [2] = species: Homo sapiens; test: Selectivity ratio of IC50 for ERRgamma (unknown origin) assessed as inhibition of co-activator peptide recruitment to IC50 for His6-tagged ERRalpha LBD (unknown origin) assessed as inhibition of GST-tagged SRC-2 co-activator peptide recruitment

CN1CC[C@@H](N2C(=O)S/C(=C\c3ccc4c(cnn4Cc4ccc(Cl)cc4C(F)(F)F)c3)C2=O)[C@H](F)C1
Ratio IC50 (Homo sapiens [1]): > 400 | Ratio IC50 (Homo sapiens [2]): > 400
